The source of these data is patent publication US7105725B2, “Pathogen resistant transgenic plants expressing CEMA or CEMA-related peptides” (University of Victoria Innovation and Development …, priority 1999, dated 2006).

A short description of this data set: preliminary feeding trials of transgenic tubers. The note with it: feeding for a month, tubers from ECEMA-expressing transgenic potato plants.

Turning to `CC[C@H](C)[C@H](NC(=O)CNC(=O)[C@@H](NC(=O)[C@H](CCCCN)NC(=O)[C@H](CCCCN)NC(=O)[C@H](Cc1ccccc1)NC(=O)[C@H](CC(C)C)NC(=O)[C@H](CCCCN)NC(=O)[C@H](Cc1c[nH]c2ccccc12)NC(=O)[C@H](CCCCN)NC(=O)[C@H](CCSC)NC(=O)[C@H](Cc1c[nH]cn1)NC(=O)[C@H](CCC(=O)O)NC(=O)[C@H](CC(C)C)NC(=O)[C@H](C)NC(=O)[C@@H](N)CCSC)[C@@H](C)CC)C(=O)NCC(=O)N[C@@H](C)C(=O)N[C@H](C(=O)N[C@@H](CC(C)C)C(=O)N[C@@H](CCCCN)C(=O)N[C@H](C(=O)N[C@@H](CC(C)C)C(=O)N[C@H](C(=O)N[C@H](C(=O)NCC(=O)N[C@@H](CC(C)C)C(=O)N1CCC[C@H]1C(=O)N[C@@H](C)C(=O)N[C@@H](CC(C)C)C(=O)N[C@@H](CCCCN)C(=O)N[C@@H](CC(C)C)C(=O)N[C@H](C(=O)N[C@@H](CCCCN)C(=O)O)[C@@H](C)O)[C@@H](C)O)[C@@H](C)O)C(C)C)C(C)C` [ECEMA], the “toxicity of tubers to mice” value was “not toxic”.
